Experimental data as given in patent US7041810B2, “Alpha-2 adrenergic receptor polymorphisms” (University Of Cincinnati, priority 2000, dated 2006).

Test system: Lys251 alpha-2AAR

Structure (SMILES): CNC[C@H](O)c1ccc(O)c(O)c1 [epinephrine]
- maximal extent of accumulation of inositol phosphates, Lys251 versus Asn251: not found to be different
